The values below are quoted from earlier work in US20140329706A1, “AFFINITY TAGS, AND RELATED AFFINITY LIGANDS, ENGINEERED PROTEINS, MODIFIED SUPPORTS, COMPOSITIONS, METHODS AND SYSTEMS” (CALIFORNIA INSTITUTE OF TECHNOLOGY, priority 2013, published 2014).

The chains behind the UniProt entries cited, without tags or fusion partners. Residues count along the entry.
UniProt P31016, 313-393 limits assumed: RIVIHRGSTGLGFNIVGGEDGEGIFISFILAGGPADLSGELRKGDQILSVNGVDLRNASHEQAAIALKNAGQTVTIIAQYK

The series deals with T1, PSD-95 PDZ3 domain (Rattus norvegicus, UniProt P31016).
T1 construct: between the PSD-95 PDZ3 domain and the C-terminal six amino acids of CRIPT (46,47)
To be noted: PSD-95 PDZ3 domain and C-terminal six amino acids of CRIPT; refs (46,47); cited from earlier work.

In general, Kd refers to a measure of binding affinity in units of concentration. “YKQTSV [C-terminal six amino acids of CRIPT, six C-terminal amino acids of the neuronal protein CRIPT, PDZ3 ligand]”: the Kd was approximately 760 nM.
